# Laboratory results reported in PubChem BioAssay AID2764 (Sanford-Burnham Center for Chemical Genomics, 2010).
# Protein sequences, listed by entry. Tags and fused reporters are not part of them.
# UniProt P35414, whole entry: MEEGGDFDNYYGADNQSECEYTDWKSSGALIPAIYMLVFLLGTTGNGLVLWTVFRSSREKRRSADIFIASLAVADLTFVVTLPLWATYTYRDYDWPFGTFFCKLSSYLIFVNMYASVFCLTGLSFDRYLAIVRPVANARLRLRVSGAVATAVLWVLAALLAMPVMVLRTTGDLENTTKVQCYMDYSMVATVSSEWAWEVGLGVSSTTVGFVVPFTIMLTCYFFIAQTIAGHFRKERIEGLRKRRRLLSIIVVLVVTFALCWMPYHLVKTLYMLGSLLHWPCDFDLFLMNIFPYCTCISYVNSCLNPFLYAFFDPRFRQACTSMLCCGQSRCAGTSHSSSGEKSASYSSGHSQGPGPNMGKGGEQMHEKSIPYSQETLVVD
# The entries are a selection whose mix differs from that of the whole data set. The source made the active and inactive calls.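 How the source made its calls: active means activation above 40%, taking the highest of four retests; inactive means the rest.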
# Target: Apelin receptor (Homo sapiens) (UniProt P35414)
# Assay: APJ activation via beta-arrestin recruitment – cell-based, single concentration, CHO-K1, luminescence, confirmation (AID 2764);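 further: plate controls were DMSO wells for no effect and apelin-13 at 10 nM for full effect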
# Conditions: CHO-K1 APJ PathHunter beta-arrestin, at 20 µM, active compounds read high
# How it was run: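 Benchmarks: Positive control apelin-13 at 10 nM final | Material: CHO-K1 cells with tagged APJ and beta-arrestin | Read-out basis: beta-arrestin recruitment to APJ as % activation | Signal: Chemiluminescence from beta-gal fragment complementation, detection reagent | Timing: Overnight cell seeding, 90 min compound exposure at 25 °C, 60 min detection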
smiles,measurement,value
O=[N+]([O-])c1cc([N+](=O)[O-])c(-c2cnn(-c3ccccc3)c2)c([N+](=O)[O-])c1,activation,inactive: 31.6%
